# Melting point values, as collected for the OPERA models

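The numbers are reported measurements, compiled and curated for the OPERA QSAR suite. One number stands for a compound and property, with no spread given. Method, purity and exact conditions of the single measurements are not given. Where a salt, mixture or single isomer is drawn, the source does not say that exactly this form was tested. Some entries may be limits or estimates that an upstream database listed as plain numbers.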

Melting points are in °C.
"via" names the databases from which the curators took the value.

- O=C(O)CCCCCN1C(=O)CSC1=S [3-Thiazolidinehexanoic acid, 4-oxo-2-thioxo-]: MP 86 °C (via OCHEM)
- CC(=O)O[C@H]1[C@H](O[Si](C)(C)C(C)(C)C)[C@@H](CO[Si](C)(C)C(C)(C)C)O[C@H]1n1cnc2c(N)ncnc21 [9-(2-O-acetyl-beta-d-arabinofuranosyl)adenine]: MP 195 °C (via OCHEM)
- NC1c2ccccc2-c2ccccc21 [9-Aminofluorene]: MP 44 °C (via OCHEM)
- Clc1ncnc2c(Br)cccc12 [8-Bromo-4-chloroquinazoline]: MP 160 °C (via OCHEM)
- N#Cc1c(SCC(=O)O)nc2c(c1-c1ccco1)CCCC2: MP 210 °C (via OCHEM)
- NC(=O)CCNCCO [Propanamide, 3-[(2-hydroxyethyl)amino]-]: MP 61 °C (via eChemPortal)
- CCOC(=O)Cc1nc2ccccc2[nH]1 [Ethyl (1H-benzimidazol-2-yl)acetate]: MP 180 °C (via OCHEM)
- N#Cc1ccc(C(=O)N2CCOCC2)cc1 [4-(Morpholine-4-carbonyl)benzonitrile]: MP 145 °C (via OCHEM)
- Cc1n[nH]c(=S)n1C [3H-1,2,4-Triazole-3-thione, 2,4-dihydro-4,5-dimethyl-]: MP 114 °C (via OCHEM)
- Cc1ccc2c(CCl)cc(=O)oc2c1C [4-(chloromethyl)-7,8-dimethyl-2H-chromen-2-one]: MP 175 °C (via OCHEM)
- O=C(O)CC1c2ccccc2Oc2ccccc21 [9H-xanthen-9-ylacetic acid]: MP 154 °C (via OCHEM)
- O=C([O-])[O-].O=C([O-])[O-].OO.OO.OO.[Na+].[Na+].[Na+].[Na+]: MP 50 °C (via PubChem)
- NNc1ccc(S(=O)(=O)CCO)cc1 [Ethanol, 2-[(4-hydrazinophenyl)sulfonyl]-]: MP 176 °C (via eChemPortal)
- Nc1ccc(-c2nc3ccccc3o2)cc1 [Benzenamine, 4-(2-benzoxazolyl)-]: MP 171 °C (via OCHEM)
- O=[N+]([O-])c1ccccc1S(=O)(=O)N1CCNCC1 [1-(2-Nitrobenzene-1-sulfonyl)piperazine]: MP 148 °C (via OCHEM)
- Cl.NC(CO)C(=O)N/N=C/c1ccc(O)c(O)c1O (stereo partly drawn): MP 218 °C (via eChemPortal)
- C#CC(C)N(C)C(=O)Nc1ccc(Cl)cc1 (configuration not stated) [Buturon]: MP 143 °C (via QSARDB)
- CCN(CC)c1nc(=O)cc(C)[nH]1 [2-(Diethylamino)-6-methyl-1H-pyrimidin-4-one]: MP 134 °C (via eChemPortal)
- CCCCc1nnc(N)o1 [5-Butyl-1,3,4-oxadiazol-2-amine]: MP 140 °C (via OCHEM)
- Clc1cc(Cl)c(Oc2cc(Cl)c(Cl)c(Cl)c2)cc1Cl [2,3',4,4',5,5'-Hexachlorodiphenyl ether]: MP 84 °C (via QSARDB)
- Cc1noc(N)n1 [3-Methyl-1,2,4-oxadiazol-5-amine]: MP 162 °C (via OCHEM)
- COc1cccc(NCCC#N)c1 [3-(3-Methoxyanilino)propanenitrile]: MP 82 °C (via OCHEM)
- Clc1ccc(Cl)c(OCCBr)c1 [2-(2-Bromoethoxy)-1,4-dichlorobenzene]: MP 58 °C (via OCHEM)
- Cc1cccc(-n2nc(C(C)(C)C)cc2N)c1 [3-tert-Butyl-1-(3-methylphenyl)-1H-pyrazol-5-amine]: MP 91 °C (via OCHEM)
- Oc1cccc(-c2cccc(O)c2)c1 [3,3'-Biphenyldiol]: MP 125 °C (via OCHEM)
- O=C(C[NH+](Cc1ccccc1)Cc1ccccc1)c1ccc(O)c(O)c1.[Cl-]: MP 200.5 °C (via eChemPortal)
- S=c1[nH]c(-c2ccccc2)c(-c2ccccc2)n1Cc1ccccc1 [1-benzyl-4,5-diphenyl-1H-imidazole-2-thiol]: MP 281 °C (via OCHEM)
- CCN(CC)C(COC(=O)c1ccc(N)cc1)CC(C)C.CS(=O)(=O)O (configuration not stated): MP 158 °C (via OCHEM)
- O=C(CN1CCNCC1)N1CCCCC1 [1-(2-oxo-2-piperidin-1-ylethyl)piperazine]: MP 84 °C (via OCHEM)
- COc1cc(OC)cc(C(=O)N2CCC(C(=O)O)CC2)c1 [1-(3,5-dimethoxybenzoyl)piperidine-4-carboxylic Acid]: MP 165 °C (via OCHEM)
- CCc1ccc(-c2csc(N)n2)cc1 [4-(4-ethylphenyl)-1,3-thiazol-2-amine]: MP 121 °C (via OCHEM)
- O=C(CCl)NCCCc1ccccc1 [2-chloro-N-(3-phenylpropyl)acetamide]: MP 77.5 °C (via OCHEM)
- Nc1cccc(NC(=O)c2cccnc2)c1 [N-(3-Aminophenyl)pyridine-3-carboxamide]: MP 156 °C (via OCHEM)
- Clc1ncnc2sc3c(c12)CCCC3 [4-chloro-5,6,7,8-tetrahydrobenzo[4,5]thieno[2,3-d]pyrimidine]: MP 95.5 °C (via OCHEM)
- O=C(O)C1(c2ccccc2)CCOCC1 [4-phenyltetrahydro-2H-pyran-4-carboxylic acid]: MP 129 °C (via OCHEM)
- Cc1ccc(C)c2[nH]c(C(=O)O)cc12 [4,7-dimethyl-1H-indole-2-carboxylic Acid]: MP 207 °C (via OCHEM)
- ClCc1ncc(-c2ccccc2)o1 [2-(chloromethyl)-5-phenyl-1,3-oxazole]: MP 64 °C (via OCHEM)
- O=Cc1cc(Br)c2c(c1)OCO2 [7-Bromo-2H-1,3-benzodioxole-5-carbaldehyde]: MP 118 °C (via OCHEM)

Again, the 4 entries with the lowest MP:

* NC1c2ccccc2-c2ccccc21 [9-Aminofluorene]: MP 44 °C (via OCHEM)
* O=C([O-])[O-].O=C([O-])[O-].OO.OO.OO.[Na+].[Na+].[Na+].[Na+]: MP 50 °C (via PubChem)
* Clc1ccc(Cl)c(OCCBr)c1 [2-(2-Bromoethoxy)-1,4-dichlorobenzene]: MP 58 °C (via OCHEM)
* NC(=O)CCNCCO [Propanamide, 3-[(2-hydroxyethyl)amino]-]: MP 61 °C (via eChemPortal)

Source: data files of OPERA 2.9 (Mansouri et al.), github.com/kmansouri/OPERA.